In PubChem BioAssay AID588354 (The Scripps Research Institute Molecular Screening Center, 2011):
Only a part is listed here, and it is no random draw. Some salts or complexes appear as unconnected parts, following the source record. The source made the active and inactive calls.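 How the source made its calls: active means inhibition above the campaign mean plus 3 SD, with each screening campaign given its own cutoff (cut at about 60% in these data); inactive means the rest.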

Chains of the proteins cited; added tags and fusions are not shown.
UniProt Q15788, whole entry: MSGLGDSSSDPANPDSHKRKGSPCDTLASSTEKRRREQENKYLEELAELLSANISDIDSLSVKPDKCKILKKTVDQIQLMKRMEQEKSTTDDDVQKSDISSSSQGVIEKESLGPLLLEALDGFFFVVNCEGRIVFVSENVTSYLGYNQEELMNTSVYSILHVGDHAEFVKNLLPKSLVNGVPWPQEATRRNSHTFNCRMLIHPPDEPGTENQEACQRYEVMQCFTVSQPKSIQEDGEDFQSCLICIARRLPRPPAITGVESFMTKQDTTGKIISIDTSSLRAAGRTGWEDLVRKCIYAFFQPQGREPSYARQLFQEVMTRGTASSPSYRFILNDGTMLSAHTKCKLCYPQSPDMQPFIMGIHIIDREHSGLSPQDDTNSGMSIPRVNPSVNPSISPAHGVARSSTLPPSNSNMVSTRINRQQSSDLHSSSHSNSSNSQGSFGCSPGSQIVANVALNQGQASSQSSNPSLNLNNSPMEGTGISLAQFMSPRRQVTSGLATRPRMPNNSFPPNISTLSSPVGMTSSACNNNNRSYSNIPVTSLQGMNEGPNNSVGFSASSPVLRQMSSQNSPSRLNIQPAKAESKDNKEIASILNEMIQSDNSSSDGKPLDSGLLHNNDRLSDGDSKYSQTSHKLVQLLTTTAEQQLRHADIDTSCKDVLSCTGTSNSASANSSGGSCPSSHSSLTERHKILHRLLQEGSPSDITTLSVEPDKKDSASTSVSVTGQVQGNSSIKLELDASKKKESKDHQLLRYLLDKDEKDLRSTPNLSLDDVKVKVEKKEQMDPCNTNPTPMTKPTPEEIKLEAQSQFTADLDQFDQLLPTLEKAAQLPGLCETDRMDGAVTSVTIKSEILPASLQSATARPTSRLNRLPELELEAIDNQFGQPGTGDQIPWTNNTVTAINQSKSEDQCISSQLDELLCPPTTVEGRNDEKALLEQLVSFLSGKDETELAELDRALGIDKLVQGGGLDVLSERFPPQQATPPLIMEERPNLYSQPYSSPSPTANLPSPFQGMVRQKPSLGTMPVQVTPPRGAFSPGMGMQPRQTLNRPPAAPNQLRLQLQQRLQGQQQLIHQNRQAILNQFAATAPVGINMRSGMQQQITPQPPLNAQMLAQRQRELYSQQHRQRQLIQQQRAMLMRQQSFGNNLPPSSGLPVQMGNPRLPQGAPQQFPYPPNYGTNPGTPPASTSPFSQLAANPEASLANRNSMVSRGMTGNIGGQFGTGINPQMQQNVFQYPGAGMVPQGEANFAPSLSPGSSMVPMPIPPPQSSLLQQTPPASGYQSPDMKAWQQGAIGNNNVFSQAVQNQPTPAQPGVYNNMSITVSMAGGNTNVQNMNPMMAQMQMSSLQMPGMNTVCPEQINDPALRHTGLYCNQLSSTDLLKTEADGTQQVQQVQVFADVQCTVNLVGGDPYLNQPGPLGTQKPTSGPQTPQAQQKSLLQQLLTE

Molecular target: Nuclear receptor coactivator 1 (Homo sapiens) (UniProt Q15788)
Assay: NCOA1 GAL4-fusion reporter inhibition – cell-based, luminescence, primary screen (AID 588354);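 further: 0% = DMSO treated cells and 100% = gossypol at 36 µM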
Settings: HEK293 GAL4-SRC1 luciferase reporter, at 3.6 µM, hits give high values

SMILES | inhibition
CN(C)CCOC(=O)C(O)(c1ccccc1)C1CCCC1 (centres undefined) | inactive: -7.5%
COc1ccc(OP(C)(=O)Nc2ccccn2)cc1 (centres undefined) | inactive: 12.1%
COc1ccccc1OP(C)(=O)Nc1ccc(Br)cc1 (centres undefined) | inactive: 5%
CCc1ccc(OP(C)(=O)O)cc1 | inactive: 3.3%
COc1ccccc1OP(C)(=O)Nc1ccc(C)cc1C (centres undefined) | inactive: 5.91%
CP(=O)(Nc1ccccn1)Oc1ccccc1 (centres undefined) | inactive: -11.9%
Cc1c(NP(C)(=O)Oc2ccc(C(C)C)cc2)c(=O)n(-c2ccccc2)n1C (centres undefined) | inactive: -20.8%
O=[N+]([O-])c1cc([N+](=O)[O-])c(Nc2ccccn2)c([N+](=O)[O-])c1 | inactive: -29.9%
COc1ccc(OP(C)(=O)Nc2ccccc2Br)cc1 (centres undefined) | inactive: 10.3%
COc1ccccc1OP(C)(=O)Nc1ccc(C)c(C)c1 (centres undefined) | inactive: 3.58%
Cc1cc(C)cc(OP(C)(=O)Nc2cccc(C(F)(F)F)c2)c1 (centres undefined) | inactive: -1.89%
O=C1C(O)=C([N+](=O)[O-])C(=O)C(O)=C1[N+](=O)[O-] | inactive: -12.1%
CP(=O)(Nc1ccc(Cl)cc1Cl)Oc1ccccc1 (centres undefined) | inactive: 5.26%
CCCCCCCCCCCCCCCC1C[N+](C)(C)CCOP(C)(=O)O1 (centres undefined) | inactive: -5.62%
CP(=O)(OCCOc1ccccc1)OCCOc1ccccc1 | inactive: 2.77%
COc1ccc(OP(C)(=O)Nc2ccc(SC(F)(F)F)cc2)cc1 (centres undefined) | inactive: -3.76%
CCOC(=O)c1ccc(NP(C)(=O)Oc2ccc(F)cc2)cc1 (centres undefined) | inactive: -2.7%
O=[N+]([O-])c1cc([N+](=O)[O-])c(OC2CCCCC2O)c([N+](=O)[O-])c1 (centres undefined) | inactive: 10.9%
CCCCCOc1ccc(NP(C)(=O)Oc2ccc(Cl)cc2Cl)cc1 (centres undefined) | inactive: 11%
CP(=O)(Nc1ccccc1)Oc1ccc(F)cc1 (centres undefined) | inactive: -28.3%

SMILES | inhibition
CCN(CC)CCCOC(=O)C(O)(c1ccccc1)C1CCCCC1 (centres undefined) | inactive: 6.76%
Cc1c([N+](=O)[O-])cc([N+](=O)[O-])c(Br)c1[N+](=O)[O-] | inactive: -4.26%
CC(C)c1ccc(OP(C)(=O)Nc2ccc(SC(F)(F)F)cc2)cc1 (centres undefined) | inactive: -4.44%
CP(=O)(Nc1ccccc1F)Oc1ccccc1 (centres undefined) | inactive: -26.1%
O=[N+]([O-])c1cc([N+](=O)[O-])c(Nc2ccc(Cl)cc2)c([N+](=O)[O-])c1 | inactive: -22.1%
COc1ccc2c(c1O)-c1c(O)c(OC)cc3c1[C@H](C2)[N+](C)(C)CC3.O=[N+]([O-])c1cc([N+](=O)[O-])c([O-])c([N+](=O)[O-])c1[O-] | inactive: -2.76%
O=C(OCCN1CCN(CCOCc2ccccc2)CC1)C(O)(c1ccccc1)c1ccccc1 | inactive: 3.54%
O=C(OC1CN2CCC1CC2)c1ccc([N+](=O)[O-])cc1 (centres undefined) | inactive: -28.3%
CCOP(C)(=S)SCC(=O)NC(C)(CC)C(=O)O (centres undefined) | inactive: 0.18%
CP(=O)(Nc1ccc(SC(F)(F)F)cc1)Oc1ccc(F)cc1 (centres undefined) | inactive: -5.12%
Cc1ccccc1NP(C)(=O)Nc1ccccc1C | inactive: -20.6%
CP(=O)(Nc1ccc2c(c1)OCCO2)Oc1ccccc1 (centres undefined) | inactive: -13.9%
COc1ccc(NP(C)(=O)Oc2ccccc2OC)cc1 (centres undefined) | inactive: -15.5%
CN(C)CCOC(=O)C(O)(c1ccccc1)C1CCCCC1 (centres undefined) | inactive: 1.02%
COc1ccc(OP(C)(=O)Nc2cccc(Br)c2)cc1 (centres undefined) | inactive: 2.21%
Cc1c(C(c2ccc3c(c2)OCO3)c2c(C)n(C)n(-c3ccccc3)c2=O)c(=O)n(-c2ccccc2)n1C.O=[N+]([O-])c1cc([N+](=O)[O-])c(O)c([N+](=O)[O-])c1 | inactive: -2.72%
O=[N+]([O-])c1cc([N+](=O)[O-])c(NCC2CCS(=O)(=O)C2)c([N+](=O)[O-])c1 (centres undefined) | inactive: -8.51%
Cc1cc(-c2cccc3ccccc23)c(C)cn1.O=[N+]([O-])c1cc([N+](=O)[O-])c(O)c([N+](=O)[O-])c1 | inactive: -10.9%
O=[N+]([O-])c1ccc(OP2(=O)COCCO2)cc1 (centres undefined) | inactive: -25.6%
